# Literature values as cited in patent US20260144817A1, “IN[…] THERAPY IN BCG-EXPOSED PATIENTS” (priority 2022, published 2026).
# Details: patients; printed 'as high as'
substance,measurement,value
cyclophosphamide and fludarabine,toxicity,30-40%
